Our source for the IC50 values is US11529422B2, “Polymer linkers and their uses” (priority 2016, dated 2022).

Common to all, as to type: cell-based
One experiment concerns MCF7 breast cancer cell. The experiment in a line: Cell Viability Assay (CellTiter-Glo), MCF7. Conditions: MCF7, Table 2 (another assay).
In a further experiment the test system is NCI-N87 cells. Nature of the experiment: Cell Viability Assay (CellTiter-Glo), NCI-N87. Conditions: NCI-N87, Table 2 (another assay).
For a further experiment, the system named is SK-BR-3 cells. Nature of the experiment: Cell Viability Assay (CellTiter-Glo), SK-BR-3. As to conditions: SK-BR-3, Table 2 (another assay). Background: In ATP-based viability assays light output follows the ATP content of the culture.
Another experiment has as its system BT-474 cells. Nature of the experiment: Cell Viability Assay (CellTiter-Glo), BT-474. As to conditions: BT-474, Table 2 (another assay).

Broadly, the IC50 is the point on the concentration scale where inhibition reaches its midpoint. A high value points to lower potency.

In the case of Trastuzumab, the IC50 in the experiment with MCF7 breast cancer cell turned out to be 0.447 µM; in the experiment on NCI-N87 cells, 0.0695 µM; in the experiment on SK-BR-3 cells, 0.122 µM; with BT-474 cells, 0.267 µM.
